Results: patent US20250136607A1 (REGOR PHARMACEUTICALS, INC., priority 2021, published 2025)

Amino acid sequences for entries named in this document (tags omitted).
UniProt Q9UM07, whole entry: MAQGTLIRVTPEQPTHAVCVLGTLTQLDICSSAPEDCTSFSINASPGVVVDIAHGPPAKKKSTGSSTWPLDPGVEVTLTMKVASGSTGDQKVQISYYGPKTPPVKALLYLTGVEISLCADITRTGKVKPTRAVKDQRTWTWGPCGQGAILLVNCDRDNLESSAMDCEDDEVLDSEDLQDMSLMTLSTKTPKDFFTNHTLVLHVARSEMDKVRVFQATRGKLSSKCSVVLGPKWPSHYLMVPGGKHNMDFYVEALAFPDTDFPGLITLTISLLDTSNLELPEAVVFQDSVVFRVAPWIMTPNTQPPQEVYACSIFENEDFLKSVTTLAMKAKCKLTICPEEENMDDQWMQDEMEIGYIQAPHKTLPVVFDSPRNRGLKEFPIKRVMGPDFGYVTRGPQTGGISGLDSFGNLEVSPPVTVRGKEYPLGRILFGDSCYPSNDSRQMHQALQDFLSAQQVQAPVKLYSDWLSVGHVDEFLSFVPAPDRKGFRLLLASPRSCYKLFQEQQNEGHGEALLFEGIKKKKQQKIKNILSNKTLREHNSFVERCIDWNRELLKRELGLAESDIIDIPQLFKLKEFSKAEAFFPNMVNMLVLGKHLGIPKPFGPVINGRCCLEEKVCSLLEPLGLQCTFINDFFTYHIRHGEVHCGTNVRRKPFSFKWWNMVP

Biological target: Protein arginine deiminase 4 (PAD4) (Homo sapiens, UniProt Q9UM07)
Experiment: PAD4 ammonia release assay
Conditions: read-out: Average IC50 Abs, BAEE substrate, 60 min at RT
Procedure: 1) Compound preparation: The compounds were diluted to 80× final concentrations. 2) The compounds were transferred to a 384-well assay plate by Tecan. DMSO: 1.25%. 3) Preparation of 1×Assay buffer: 100 mM HEPES, PH=8.0, 2 mM CaCl2, 50 mM NaCl, 0.1 mM TCEP, 0.6 mg/ml BSA. 4) 2× enzyme working solution (PAD4:20 nM) was prepared with assay buffer, and 10 μL of the obtained working solution were added to the 384-well assay plates. 5) The plate was centrifuged at 1000 rpm for 1 min. 6) After the centrifuge, the plate was incubated at RT for 15 min. 7) 2×BAEE substrate mix (600 μM) was prepared with assay buffer and 10 μL of the obtained substrate mix were added to each well. 8) The plate was centrifuged at 1000 rpm for 1 min and then incubated at RT for 60 min. 9) 1.5× detection mix (DTT:4 mM, OPA:3 mM, EDTA: 30 mM) was prepared, and 10 μL of the mix were added to the plate. 10) The plate was centrifuged at 1000 rpm for 1 min and then incubated at RT for 120 min. 11) The 384-well plates were placed into the Envision (PerkinElmer) and the assay data were collected.
The percent (%) inhibition at each concentration of compound was calculated based on and relative to the signal in the HPE (50 μM ref. compound) and ZPE (1.25% DMSO) wells included within each assay plate. […] The endpoint value (IC50) for the reference compound was evaluated in each experiment as a quality control measure. […]

- IC50: 100 to 500 nM
SMILES: COc1cc(C(=O)N2C[C@H](N)C[C@@H](F)C2)cc2nc(-c3cc4cccc5c4n3CCN5CCC(C)(C)O)n(Cc3cnn(C)c3)c12
